Article PMC3749136

Target: GST-SOCS5-SH2 Elo B/C (UniProt O75159)
Assay: SPR
Details: not given

**Q.** EGF-R pY1092 phosphopeptide (wild type) was tested. Which Kd did it give?
**A.** 0.87 µM

**Q.** JAK1(pY1033) phosphopeptide was tested. Which Kd did it give?
**A.** 17 µM

**Q.** JAK2(pY1007) phosphopeptide was tested. Which Kd did it give?
**A.** 78 µM

**Q.** Shc-1 pY239 phosphopeptide was tested. Which fold tighter binding of Shc-1 pY317 than of this peptide did it give?
**A.** 25 fold

**Q.** With Shc-1 pY317 phosphopeptide as the substance, how does the Kd read?
**A.** 0.16 µM

Target: GST-SOCS5-SH2 Elo B/C, O75159;Q15370;Q15369
Assay: SPR (competitive binding assay, steady-state analysis)
Details: competitor phosphopeptides 0.4–10 µM; immobilised Shc-1 pY317 peptide; parent: 0.87

**Q.** Which Kd does the source give for “EGF-R pY1092 phosphopeptide (wild type) E(-1)A” here?
**A.** 1.07 µM

**Q.** For “EGF-R pY1092 phosphopeptide (wild type) I(+1)A”, which Kd is on record?
**A.** 12.6 µM

**Q.** “EGF-R pY1092 phosphopeptide (wild type) N(+2)A” was tested. Which Kd did it give?
**A.** 13.3 µM

**Q.** “EGF-R pY1092 phosphopeptide (wild type) P(-2)A” was tested. Which Kd did it give?
**A.** 4.52 µM

**Q.** With “EGF-R pY1092 phosphopeptide (wild type) Q(+3)A” as the substance, how does the Kd read?
**A.** 1.17 µM

**Q.** Which Kd does the source give for “EGF-R pY1092 phosphopeptide (wild type) S(+4)A” here?
**A.** 8.05 µM

**Q.** With “EGF-R pY1092 phosphopeptide (wild type) V(+5)A” as the substance, how does the Kd read?
**A.** 1.45 µM

**Q.** With “EGF-R pY1092 phosphopeptide (wild type) V(-3)A” as the substance, how does the Kd read?
**A.** 1.82 µM
